Earlier results, collected in patent US12343403B2, “Targeted ligand-payload based drug delivery for cell therapy” (Purdue Research Foundation, priority 2017, dated 2025).

Conditions: scFv against FITC; cited from earlier work

Substance: 4D5Flu: scFv against FITC, SEQ ID NO:20
- Kd: 10 nM
